# Results taken from paper PMC2778353, “Toxicity of Xanthene Food Dyes by Inhibition of Human Drug-Metabolizing Enzymes in a Noncompetitive Manner” (Journal of Environmental and Public Health, 2009).
# Molecular target: T1, UGT1A6 (Homo sapiens, UniProt P19224)
# T1 sequence (P19224 27-532): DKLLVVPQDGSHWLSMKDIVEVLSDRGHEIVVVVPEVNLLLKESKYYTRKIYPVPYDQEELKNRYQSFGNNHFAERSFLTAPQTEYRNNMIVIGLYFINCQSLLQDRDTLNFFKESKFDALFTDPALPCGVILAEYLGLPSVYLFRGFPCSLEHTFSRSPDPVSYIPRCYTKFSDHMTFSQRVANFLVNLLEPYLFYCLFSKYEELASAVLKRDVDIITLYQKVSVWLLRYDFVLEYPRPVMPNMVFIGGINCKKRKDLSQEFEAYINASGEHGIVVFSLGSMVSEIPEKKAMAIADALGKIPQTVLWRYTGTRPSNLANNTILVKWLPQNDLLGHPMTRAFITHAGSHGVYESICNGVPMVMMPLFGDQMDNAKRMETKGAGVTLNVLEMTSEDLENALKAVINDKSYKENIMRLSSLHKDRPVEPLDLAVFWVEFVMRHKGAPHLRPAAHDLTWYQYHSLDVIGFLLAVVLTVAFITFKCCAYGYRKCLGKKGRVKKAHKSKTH
# Experiment: Inhibition of UGT1A6 activity (glucuronidation of p-nitrophenol) in pooled human liver microsomes
compound,measurement,value
"O=S(=O)([O-])c1cc(S(=O)(=O)[O-])c2c(N=Nc3ccc(S(=O)(=O)[O-])c4ccccc34)c(O)ccc2c1.[Na+].[Na+].[Na+] [New coccine (NC), new coccine]",Inhibition of UGT1A6 activity (in words),insignificant inhibition
